Experimental data as given in patent US20170369807A1, “Ionic Liquid, Lubricant, and Magnetic Recording Medium” (Dexerials Corporation, priority 2016, published 2017).

Assay: Solubility test to solvents (visual observation)
Conditions: ultrasonic waves 5 minutes, left 1 day, visually observed; for Solubility Fluorine-based solvent: Vertrel XF [CF3(CHF)2CF2CF3]; for Solubility Fluorine-based solvent / Solubility n-Hexane: 25° C.
[1] = listed as Comparative Example 6A

bis(nonafluorobutanesulfonyl)imide-N,N-dimethyl-dodecyl ammonium [Ex. 2A]
Solubility Fluorine-based solvent (listed as Example 2A): ≥ 0.2 % by mass
Solubility Ethanol (listed as Example 2A): ≥ 0.5 % by mass
Solubility n-Hexane (listed as Example 2A): ≥ 0.5 % by mass

nonafluorobutanesulfonic acid-N-methyloctadecyl ammonium [Comp. Ex. 4A]
Solubility Fluorine-based solvent: less than 0.2% by % by mass
Solubility n-Hexane: less than 0.5% by % by mass

pentadecafluorooctanoic acid octadecyl ammonium [Comp. Ex. 6A]
Solubility Fluorine-based solvent: less than 0.2% by % by mass
Solubility Fluorine-based solvent [1]: less than 0.2 % by mass
Solubility Ethanol [1]: ≥ 0.5 % by mass
Solubility n-Hexane [1]: ≥ 0.5 % by mass

nonafluorobutanesulfonic acid-octadecyl ammonium [Comp. Ex. 1A]
Solubility Fluorine-based solvent: less than 0.2% by % by mass
Solubility n-Hexane: less than 0.5% by % by mass

nonafluorobutanesulfonic acid-trimethyloctadecyl ammonium [Comp. Ex. 5A]
Solubility Fluorine-based solvent: less than 0.2% by % by mass
Solubility n-Hexane: less than 0.5% by % by mass
